# scFv variants of Ab-14 (heavy chain) against a SARS-CoV-2 spike peptide

From the AlphaSeq antibody data of Engelhart et al. 2022 (doi:10.1038/s41597-022-01779-4), copy in the FLAb collection.

Target: peptide PDVDLGDISGINAS, taken from heptad repeat 2 (HR2) of SARS-CoV-2 spike.

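Phage display of a naive human antibody library on the peptide gave the parent. AAYL49 was designed without a model: most single CDR substitutions and a random sample of double and triple ones. The assay is AlphaSeq: two haploid yeast populations carry antibody and antigen on their surface. Binding brings cells together so that they mate, and sequencing counts the barcode pairs among the diploids. Scores were corrected for input abundance and mapped to Kd with protein pairs of known affinity run in the same pool. There are three technical replicates.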

Parent: Ab-14, a human scFv built as VH, a 15-residue (Gly4Ser)3 linker, VL. Only the CDRs of the heavy chain vary.
VH: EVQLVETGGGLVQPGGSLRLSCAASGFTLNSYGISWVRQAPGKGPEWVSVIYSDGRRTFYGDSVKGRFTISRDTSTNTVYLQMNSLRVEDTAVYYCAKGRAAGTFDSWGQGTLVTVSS
VL: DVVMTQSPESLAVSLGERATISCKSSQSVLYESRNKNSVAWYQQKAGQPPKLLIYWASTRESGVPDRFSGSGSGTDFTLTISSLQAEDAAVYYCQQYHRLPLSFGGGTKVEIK

Each variant's VH is given in full.
The read-out is the apparent dissociation constant on a log10 scale (nM): the lower, the stronger.
A pair that was not seen in that replicate is written "ND"; this usually means weak binding, but a binder can also be missed.
Empty control strains, which show no peptide, gave a signal in 15% of pairings with library AAYL49; the median was 4.06 and 95% of these signals were weaker than 2.83. No background was subtracted. The control count says in how many pairings with the empty strains this scFv gave a signal, with their mean in brackets.

VH | replicates, log10 nM | control signals
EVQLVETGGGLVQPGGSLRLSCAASGFTLNSYGISWVRQAPGKGPEWVSVIYSDGRRTFYGASVKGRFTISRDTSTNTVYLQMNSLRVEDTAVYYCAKGRAAGTGDSWGQGTLVTVSS | ND ND ND | 0/9
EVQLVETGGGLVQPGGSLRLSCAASGFTLNSYGISWVRQAPGKGPEWVSVIYSDGRRTFYGGSVCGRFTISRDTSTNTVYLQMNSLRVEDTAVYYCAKGRAAGTFDSWGQGTLVTVSS | 3.03 2.51 3.05 | 0/9
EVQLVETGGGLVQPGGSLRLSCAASGFTLNSMGISWVRQAPGKGPEWVSVRLSDGRRTFYGDSVKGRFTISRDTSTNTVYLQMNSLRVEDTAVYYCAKGRAAGTFDSWGQGTLVTVSS | ND ND ND | 1/9 (4.73)
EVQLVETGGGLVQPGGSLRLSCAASGFTLNSYGITWVRQAPGKGPEWVSVIYSDGRRTFYGDKVKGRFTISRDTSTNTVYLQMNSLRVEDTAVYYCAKGRAAGTFDSWGQGTLVTVSS | 5.54 ND ND | 1/9 (4.39)
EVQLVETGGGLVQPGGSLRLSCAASGFMLLSYGISWVRQAPGKGPEWVSVIYSDGRRTFYGDSVKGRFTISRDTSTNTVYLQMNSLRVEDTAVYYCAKGRAAGTFDSWGQGTLVTVSS | 4.23 3.67 3.87 | 8/9 (4.35)
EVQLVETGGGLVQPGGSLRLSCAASGFTLNSYGIQWVRQAPGKGPEWVSVIYSDGRRTWYGDSVKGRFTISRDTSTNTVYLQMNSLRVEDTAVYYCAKGRAAGAFDSWGQGTLVTVSS | ND ND ND | 0/9
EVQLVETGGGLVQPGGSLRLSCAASGFTLNSYGISWVRQAPGKGPEWVSPIYSDGRRTFYGDLVKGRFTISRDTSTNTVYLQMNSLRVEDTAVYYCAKGRAAGTFDRWGQGTLVTVSS | ND ND ND | 3/9 (4.31)
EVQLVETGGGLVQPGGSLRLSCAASVFTLNWYGSSWVRQAPGKGPEWVSVIYSDGRRTFYGDSVKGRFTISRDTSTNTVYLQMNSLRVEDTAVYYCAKGRAAGTFDSWGQGTLVTVSS | ND 4.56 ND | 1/9 (3.58)
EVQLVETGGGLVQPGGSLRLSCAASGFTLCSYGNSWVRQAPGKGPEWVSLIYSDGRRTFYGDSVKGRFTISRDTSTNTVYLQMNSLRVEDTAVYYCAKGRAAGTFDSWGQGTLVTVSS | ND ND 4.10 | 0/9
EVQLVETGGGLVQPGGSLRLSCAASGFTLNKGGISWVRQAPGKGPEWVSVIYSDGRRTFYGRSVKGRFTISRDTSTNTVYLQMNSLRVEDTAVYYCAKGRAAGTFDSWGQGTLVTVSS | 4.20 ND ND | 2/9 (4.50)
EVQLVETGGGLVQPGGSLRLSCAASGFTLNSKGISWVRQAPGKGPEWVSVIYSDGRLTFYGDSVKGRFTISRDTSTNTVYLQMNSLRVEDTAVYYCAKGRAAGTFDSWGQGTLVTVSS | 5.11 ND ND | 4/9 (4.34)
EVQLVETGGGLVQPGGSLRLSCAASGPTLNSYGISWVRQAPGKGPEWVSVIYSDGRRTPYGDSVLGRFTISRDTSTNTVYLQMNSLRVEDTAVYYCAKGRAAGTFDSWGQGTLVTVSS | ND 3.66 ND | 2/9 (3.96)
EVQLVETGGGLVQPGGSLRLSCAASGFWLNSYGISWVRQAPGKGPEWVSVIYSDGRRTFYGDAVKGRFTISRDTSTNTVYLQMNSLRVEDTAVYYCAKGRAAGTFDIWGQGTLVTVSS | 1.88 1.58 1.71 | 2/9 (3.12)
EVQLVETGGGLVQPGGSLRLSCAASGFTLNSYGVSWVRQAPGKGPEWVSVIYSDGNRTFYGDEVKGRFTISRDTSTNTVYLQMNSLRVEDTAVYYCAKGRAAGTFDSWGQGTLVTVSS | ND ND ND | 0/9
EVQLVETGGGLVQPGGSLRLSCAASGFTLNSYGISWVRQAPGKGPEWVSVHYSDGRRTFYGDSCKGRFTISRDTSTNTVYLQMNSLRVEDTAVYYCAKGRAAGTFDSWGQGTLVTVSS | ND ND ND | 0/9
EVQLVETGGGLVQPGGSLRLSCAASGFTLNSYGISWVRQAPGKGPEWVSVIYSDGRRTFYGDSVKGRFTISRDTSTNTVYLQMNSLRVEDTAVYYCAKGRAAGVFECWGQGTLVTVSS | ND 2.83 ND | 0/9
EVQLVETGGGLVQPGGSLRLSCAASGFTLNSCGISWVRQAPGKGPEWVSVIYSDGRRTAYGLSVKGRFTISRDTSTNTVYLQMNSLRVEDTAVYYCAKGRAAGTFDSWGQGTLVTVSS | 3.70 2.07 2.47 | 0/9
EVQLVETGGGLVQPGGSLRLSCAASHFFLNAYGISWVRQAPGKGPEWVSVIYSDGRRTFYGDSVKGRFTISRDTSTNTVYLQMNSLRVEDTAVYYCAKGRAAGTFDSWGQGTLVTVSS | 3.84 3.64 3.90 | 4/9 (3.94)

The 3 strongest on average among those seen in every replicate, once more:

| VH | replicates, log10 nM | control signals |
|---|---|---|
| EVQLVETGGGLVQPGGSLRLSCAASGFWLNSYGISWVRQAPGKGPEWVSVIYSDGRRTFYGDAVKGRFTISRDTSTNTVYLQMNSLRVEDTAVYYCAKGRAAGTFDIWGQGTLVTVSS | 1.88 1.58 1.71 | 2/9 (3.12) |
| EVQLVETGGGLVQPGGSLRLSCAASGFTLNSCGISWVRQAPGKGPEWVSVIYSDGRRTAYGLSVKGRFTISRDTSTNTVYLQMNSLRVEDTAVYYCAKGRAAGTFDSWGQGTLVTVSS | 3.70 2.07 2.47 | 0/9 |
| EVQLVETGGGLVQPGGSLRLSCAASGFTLNSYGISWVRQAPGKGPEWVSVIYSDGRRTFYGGSVCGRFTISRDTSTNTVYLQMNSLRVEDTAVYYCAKGRAAGTFDSWGQGTLVTVSS | 3.03 2.51 3.05 | 0/9 |